In experiment [1] the target is T1, Neuronal acetylcholine receptor; alpha3/beta4 (Rattus norvegicus, UniProt P04757+P12392). In words: Activation potency at Nicotinic acetylcholine receptor alpha3beta4, expressed as concentration required to achieve a half maximal activation.
In experiment [2] the target is T1, Neuronal acetylcholine receptor; alpha3/beta4. In words: Binding affinity at rat brain Nicotinic acetylcholine receptor alpha3-beta4.
Experiment [3] has as its target Neuronal acetylcholine receptor subunit alpha-7 (Rattus norvegicus, UniProt Q05941). Description: Binding affinity at rat brain Nicotinic acetylcholine receptor alpha7.

Chains of the proteins cited; added tags and fusions are not shown. Residues count along the entry.
UniProt P04757, 26-499 limits assumed: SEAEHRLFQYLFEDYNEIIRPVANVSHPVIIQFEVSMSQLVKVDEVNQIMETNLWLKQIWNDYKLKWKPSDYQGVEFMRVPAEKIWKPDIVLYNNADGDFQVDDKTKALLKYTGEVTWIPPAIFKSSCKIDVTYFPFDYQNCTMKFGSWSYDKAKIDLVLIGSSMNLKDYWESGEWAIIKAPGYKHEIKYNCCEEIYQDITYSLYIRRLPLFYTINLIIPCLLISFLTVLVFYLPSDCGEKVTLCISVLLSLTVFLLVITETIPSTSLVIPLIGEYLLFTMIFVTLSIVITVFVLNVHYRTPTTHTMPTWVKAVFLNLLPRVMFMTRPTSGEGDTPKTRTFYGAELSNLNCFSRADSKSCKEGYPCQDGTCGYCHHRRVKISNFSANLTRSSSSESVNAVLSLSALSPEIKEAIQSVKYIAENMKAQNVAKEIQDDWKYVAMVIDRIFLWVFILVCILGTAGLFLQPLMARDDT
UniProt P12392, 21-495 limits assumed: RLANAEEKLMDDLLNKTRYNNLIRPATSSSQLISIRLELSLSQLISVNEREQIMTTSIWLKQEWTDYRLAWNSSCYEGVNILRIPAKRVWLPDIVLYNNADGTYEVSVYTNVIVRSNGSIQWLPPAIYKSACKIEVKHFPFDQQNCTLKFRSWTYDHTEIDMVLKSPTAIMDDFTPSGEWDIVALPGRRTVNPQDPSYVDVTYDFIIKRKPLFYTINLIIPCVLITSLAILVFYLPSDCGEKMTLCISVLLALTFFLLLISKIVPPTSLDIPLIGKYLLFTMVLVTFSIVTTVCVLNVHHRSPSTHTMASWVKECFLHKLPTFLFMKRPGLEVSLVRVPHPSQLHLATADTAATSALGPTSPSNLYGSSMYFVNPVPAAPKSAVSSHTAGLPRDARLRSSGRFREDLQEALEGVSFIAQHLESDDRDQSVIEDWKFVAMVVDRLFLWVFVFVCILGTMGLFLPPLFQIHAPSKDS
UniProt Q05941, 23-502 limits assumed: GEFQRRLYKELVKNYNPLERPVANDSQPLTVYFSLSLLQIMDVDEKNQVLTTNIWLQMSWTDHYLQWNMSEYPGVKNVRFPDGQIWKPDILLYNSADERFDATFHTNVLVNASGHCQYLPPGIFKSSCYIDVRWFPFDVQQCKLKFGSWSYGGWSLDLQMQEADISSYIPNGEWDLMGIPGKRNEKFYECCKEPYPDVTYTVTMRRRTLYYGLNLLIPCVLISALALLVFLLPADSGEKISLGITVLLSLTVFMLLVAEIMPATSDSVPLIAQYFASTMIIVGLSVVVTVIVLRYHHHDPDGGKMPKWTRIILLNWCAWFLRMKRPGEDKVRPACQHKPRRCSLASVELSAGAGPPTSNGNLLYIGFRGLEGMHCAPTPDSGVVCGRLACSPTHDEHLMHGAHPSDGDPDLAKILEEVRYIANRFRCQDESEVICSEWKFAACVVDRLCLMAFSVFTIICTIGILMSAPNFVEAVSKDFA

For orientation: EC50 means the concentration that produces a half-maximal response. As a reminder, the Ki is a measure of affinity in units of concentration, obtained from inhibition or displacement. A higher Ki goes with weaker binding.

With `CC(=O)C1=CCCC2CCC1N2` (stereo not drawn), in experiment [1], the EC50 is 2290 nM. Besides, the Ki in experiment [2] is 25.4 nM; in experiment [3] it was 1140 nM.
